From US20160051697A1, “NANODELIVERY DEVICE FOR THERAPEUTIC LOADING OF CIRCULATING ERYTHROCYTES” (published 2016)

Protein sequences, listed by entry. Tags and fused reporters are not part of them. Residues count along the entry.
UniProt P06276, 29-602 limits assumed: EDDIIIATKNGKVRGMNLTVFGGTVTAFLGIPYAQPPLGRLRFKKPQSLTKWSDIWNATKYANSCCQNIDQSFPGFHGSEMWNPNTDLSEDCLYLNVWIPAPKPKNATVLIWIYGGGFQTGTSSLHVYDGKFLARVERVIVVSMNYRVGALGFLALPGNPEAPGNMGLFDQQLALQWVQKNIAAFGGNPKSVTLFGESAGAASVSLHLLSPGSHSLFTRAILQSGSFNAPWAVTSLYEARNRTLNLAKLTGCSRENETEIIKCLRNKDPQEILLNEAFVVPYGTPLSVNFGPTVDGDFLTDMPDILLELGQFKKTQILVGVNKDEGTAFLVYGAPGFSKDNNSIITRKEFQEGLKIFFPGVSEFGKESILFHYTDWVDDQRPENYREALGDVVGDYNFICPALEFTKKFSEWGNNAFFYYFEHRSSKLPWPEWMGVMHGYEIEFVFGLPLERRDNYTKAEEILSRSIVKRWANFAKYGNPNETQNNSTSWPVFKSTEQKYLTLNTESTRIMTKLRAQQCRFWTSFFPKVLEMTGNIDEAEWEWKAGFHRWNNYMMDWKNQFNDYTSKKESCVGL

Legend:
BChE = BChE (Homo sapiens, UniProt P06276); experiment: Interaction of paraoxon with free and nano-encapsulated butyrylcholinesterase; conditions: varying paraoxon concentrations, 20 minutes at 37° C., butyrythiocholine 1 mM
[1] = high dose BChE administration; cited from earlier work
[2] = Dialysis across a 300 kDa membrane; conditions: dialyzed 8 hours in PBS containing 0.5 mg/ml BSA
[3] = cited from earlier work
[4] = cited from earlier work; remark: listed apart in the source
[5] = cited from earlier work; remark: listed apart in the source
[6] = mice, im 13 mg/kg (about 0.3 mg)

butyrylcholinesterase
inhibition of BChE activity by paraoxon (BChE): similarly inhibited in a concentration-dependent manner
adverse effects (signs, serum chemistry, histopathology) [1]: No overt physiological or behavioral signs, changes in serum chemistry, or tissue histopathology
passage across 300 kDa dialysis membrane [2]: passes across the membrane more readily than the low molecular weight polymer particles
long-term stability of lyophilized enzyme [3]: at least 2 years
time blood BChE activity remained elevated ([4]; IV 30 mg/kg): 100 h
time of peak enzyme levels ([4]; higher im dosages, up to 60 mg/kg): around 24 hours
duration of substantial circulating BChE activity ([4]; im, highest dosage (60 mg/kg)): at least four days
share of peak levels still present at 70 hours [5, 6]: about 25%
time of peak blood BChE activities [5, 6]: 10 to 12 h
time at which levels were back to near baseline ([5]; mice, im or ip 0.1-3 mg): ≤ 120 h
time of peak circulating BChE enzyme activity ([5]; mice, im or ip 0.1-3 mg): 12 to 24 h
half-life ([5]; mouse, parenteral administration): 67 h
time over which >90% is cleared from the circulation ([5]; parenteral administration): 200 h
